Key:
[1] = test system: OE-33 esophageal carcinoma cells; assay: Synergy of MBZ with chemotherapeutic agents (Chou-Talalay CI, Cell Titer Glo); assay type: cell-based; conditions: in combination with MBZ, 72 hour incubation
[2] = test system: Hs766t pancreatic carcinoma cells; assay: as above; assay type: cell-based; conditions: in combination with MBZ, 72 hour incubation

Row | Compound | synergy with MBZ (Yes/No) [1] | synergy with MBZ (Yes/No) [2]
1 | O=c1[nH]cc(F)c(=O)[nH]1 [5-FU, 5-Fluorouracil] | No | –
2 | O=C1[O][Pt]2([NH][C@@H]3CCCC[C@H]3[NH]2)[O]C1=O [Oxaliplatin] | – | No

Source: patent publication US20190175560A1, “MEBENDAZOLE CANCER THERAPIES AND METHODS OF USE” (Shepherd Therapeutics, Inc., priority 2017, published 2019)
